Values quoted from earlier work in patent US20100130425A1, “USE OF TOLL-LIKE RECEPTOR LIGANDS IN TREATING EXCITOTOXIC INJURY, ISCHEMIA AND/OR HYPOXIA” (Oregon Health & Science University, priority 2005, published 2010).

Chains of the proteins cited; added tags and fusions are not shown. Residues count along the entry.
UniProt Q9NYK1, 27-1049, species assumed: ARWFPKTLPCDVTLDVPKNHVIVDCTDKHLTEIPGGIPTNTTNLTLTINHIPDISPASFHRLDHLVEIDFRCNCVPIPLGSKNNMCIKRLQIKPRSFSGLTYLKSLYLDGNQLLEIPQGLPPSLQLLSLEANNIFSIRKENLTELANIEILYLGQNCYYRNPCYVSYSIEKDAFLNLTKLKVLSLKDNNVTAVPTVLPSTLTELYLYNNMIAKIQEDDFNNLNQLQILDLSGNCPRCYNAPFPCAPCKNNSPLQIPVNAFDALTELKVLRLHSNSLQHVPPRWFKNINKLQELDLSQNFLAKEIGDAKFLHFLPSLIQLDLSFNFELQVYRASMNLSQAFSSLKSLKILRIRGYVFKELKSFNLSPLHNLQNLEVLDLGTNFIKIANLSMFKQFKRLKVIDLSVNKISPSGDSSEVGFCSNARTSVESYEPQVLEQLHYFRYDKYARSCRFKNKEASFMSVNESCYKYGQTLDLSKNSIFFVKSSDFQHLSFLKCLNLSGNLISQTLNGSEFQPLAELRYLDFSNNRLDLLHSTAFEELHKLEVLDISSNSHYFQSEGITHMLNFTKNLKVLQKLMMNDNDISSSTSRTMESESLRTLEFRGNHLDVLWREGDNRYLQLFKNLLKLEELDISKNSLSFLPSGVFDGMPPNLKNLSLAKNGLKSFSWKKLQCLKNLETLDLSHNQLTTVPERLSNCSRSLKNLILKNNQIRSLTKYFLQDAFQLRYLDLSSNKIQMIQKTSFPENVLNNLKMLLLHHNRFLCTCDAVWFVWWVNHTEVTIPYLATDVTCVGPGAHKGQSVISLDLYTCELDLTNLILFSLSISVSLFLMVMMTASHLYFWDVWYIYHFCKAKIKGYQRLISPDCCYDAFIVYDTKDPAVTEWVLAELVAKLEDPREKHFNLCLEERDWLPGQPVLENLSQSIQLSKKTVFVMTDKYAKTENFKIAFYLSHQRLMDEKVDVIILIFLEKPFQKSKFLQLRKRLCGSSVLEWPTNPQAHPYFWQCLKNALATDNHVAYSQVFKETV
UniProt Q9NR97, 27-1041: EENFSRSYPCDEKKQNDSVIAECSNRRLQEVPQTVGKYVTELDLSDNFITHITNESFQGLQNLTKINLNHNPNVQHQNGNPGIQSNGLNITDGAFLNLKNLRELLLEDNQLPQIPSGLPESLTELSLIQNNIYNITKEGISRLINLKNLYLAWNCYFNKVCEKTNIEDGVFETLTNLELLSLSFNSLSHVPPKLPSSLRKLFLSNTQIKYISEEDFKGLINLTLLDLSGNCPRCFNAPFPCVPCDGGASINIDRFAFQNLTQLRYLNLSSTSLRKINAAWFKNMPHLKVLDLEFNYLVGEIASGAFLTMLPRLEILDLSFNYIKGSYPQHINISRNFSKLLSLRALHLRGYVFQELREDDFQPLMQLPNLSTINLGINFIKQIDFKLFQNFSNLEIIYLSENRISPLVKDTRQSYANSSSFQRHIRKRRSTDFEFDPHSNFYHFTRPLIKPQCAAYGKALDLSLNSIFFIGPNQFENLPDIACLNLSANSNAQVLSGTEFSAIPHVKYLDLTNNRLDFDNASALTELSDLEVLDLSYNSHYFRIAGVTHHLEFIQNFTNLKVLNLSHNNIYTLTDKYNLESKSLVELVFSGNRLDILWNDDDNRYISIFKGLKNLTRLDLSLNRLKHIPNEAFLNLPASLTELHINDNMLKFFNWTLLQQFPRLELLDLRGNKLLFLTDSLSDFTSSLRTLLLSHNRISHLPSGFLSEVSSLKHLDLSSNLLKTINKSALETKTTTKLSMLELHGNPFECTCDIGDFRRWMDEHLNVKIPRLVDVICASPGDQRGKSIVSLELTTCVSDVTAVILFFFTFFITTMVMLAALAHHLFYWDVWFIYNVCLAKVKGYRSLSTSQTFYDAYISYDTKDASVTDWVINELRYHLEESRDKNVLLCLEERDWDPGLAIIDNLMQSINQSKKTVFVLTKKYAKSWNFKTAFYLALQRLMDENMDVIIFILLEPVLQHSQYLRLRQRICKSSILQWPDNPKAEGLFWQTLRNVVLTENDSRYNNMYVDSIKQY

Experiments:
[1] = molecular target: T1, TLR7 (Homo sapiens, UniProt Q9NYK1); conditions: TLR7-transfected HEK293 cells; cited from earlier work
T1 construct: expressed in transfected cells; host or cells: HEK293

[2] = molecular target: T2, TLR8 (Homo sapiens, UniProt Q9NR97); conditions: TLR8-transfected HEK293 cells; cited from earlier work
T2 construct: expressed in transfected cells; host or cells: HEK293

## CCOCc1nc2c(N)nc3ccccc3c2[nH]1 [CL097]
[1]
  concentration inducing activation of NF-κB: 0.4 μM and 0.1 μg/ml
[2]
  concentration inducing activation of NF-κB: 4 μM and 1 μg/ml

Several values for one entry are separate records, joined by “and”; a condition that tells them apart may be missing. Identical values can stand only once.
